pIC50: −log10 of the molar value.
How the values were obtained:
[1] = molecular target: T1, Kynurenine 3-monooxygenase (Rattus norvegicus, UniProt O88867); assay: Inhibition of rat liver KYN 3-OHase.
[2] = molecular target: T1, Kynurenine 3-monooxygenase; assay: Inhibition of rat brain KYN 3-OHase.

Sequences of proteins named here, by UniProt entry; tags and fusion partners are left off. A change or cut given only in a name is not applied to a line headed by its entry.
UniProt O88867: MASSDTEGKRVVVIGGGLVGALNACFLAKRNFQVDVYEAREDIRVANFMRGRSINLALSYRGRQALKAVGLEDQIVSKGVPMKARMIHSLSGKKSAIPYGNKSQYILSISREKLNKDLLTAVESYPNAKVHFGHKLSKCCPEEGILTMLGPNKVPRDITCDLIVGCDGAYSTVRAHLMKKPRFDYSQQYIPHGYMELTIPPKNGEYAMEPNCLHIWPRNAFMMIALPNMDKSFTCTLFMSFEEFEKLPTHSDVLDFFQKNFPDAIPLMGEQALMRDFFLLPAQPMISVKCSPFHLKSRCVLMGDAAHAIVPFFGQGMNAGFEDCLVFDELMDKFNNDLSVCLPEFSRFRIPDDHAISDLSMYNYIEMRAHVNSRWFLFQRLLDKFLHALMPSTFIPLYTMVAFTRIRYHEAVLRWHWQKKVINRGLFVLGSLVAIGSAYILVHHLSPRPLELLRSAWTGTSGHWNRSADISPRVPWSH

| pIC50 [1] | pIC50 [2] | Compound |
| --- | --- | --- |
| 5.16 | 5.92 | COC(CC(=O)c1ccc(Cl)c(Cl)c1)C(=O)O (stereo not given) |
| 5.52 | 5.84 | O=C(CC(O)C(=O)O)c1ccc(F)c(F)c1 (stereo not given) |
| 5.04 | 5.25 | O=C(CC(O)C(=O)O)c1cccc(F)c1 (stereo not given) |
| 4.94 | 5.71 | O=C(CC(O)C(=O)O)c1cccc([N+](=O)[O-])c1 (stereo not given) |
| 5.16 | 5.46 | CC(CC(=O)c1ccc(Cl)c(Cl)c1)C(=O)O (stereo not given) |
